This is an account of results in patent US9694016B2 (Novartis AG, priority 2013, dated 2017).

Chains of the proteins cited; added tags and fusions are not shown.
UniProt P04049, whole entry Y340E/Y341E: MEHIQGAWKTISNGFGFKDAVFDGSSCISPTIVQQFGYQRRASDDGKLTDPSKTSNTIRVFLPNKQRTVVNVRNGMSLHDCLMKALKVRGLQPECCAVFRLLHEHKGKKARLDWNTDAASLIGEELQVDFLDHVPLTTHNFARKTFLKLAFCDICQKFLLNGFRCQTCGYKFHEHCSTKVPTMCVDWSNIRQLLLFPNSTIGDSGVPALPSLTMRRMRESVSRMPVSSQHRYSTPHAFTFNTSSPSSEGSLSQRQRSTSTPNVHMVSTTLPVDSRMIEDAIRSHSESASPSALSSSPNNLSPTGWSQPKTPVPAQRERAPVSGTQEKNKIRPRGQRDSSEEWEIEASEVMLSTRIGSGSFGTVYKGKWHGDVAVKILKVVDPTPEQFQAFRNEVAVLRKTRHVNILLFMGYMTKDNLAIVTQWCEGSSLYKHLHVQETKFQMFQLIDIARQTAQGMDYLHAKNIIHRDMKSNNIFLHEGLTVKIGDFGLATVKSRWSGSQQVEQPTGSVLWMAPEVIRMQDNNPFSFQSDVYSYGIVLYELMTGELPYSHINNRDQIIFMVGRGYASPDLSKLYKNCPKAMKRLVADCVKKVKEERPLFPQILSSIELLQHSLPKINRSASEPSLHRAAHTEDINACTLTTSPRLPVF

Molecules are shown by their SMILES. pIC50: −log10 of the molar value.

One assay concerns the target C-Raf FL (full-length C-Raf protein, Y340E and Y341E activating mutations) (Homo sapiens (Human), UniProt P04049, Y340E/Y341E). The class given is biochemical. To be noted: AlphaScreen, 60 min pre-incubation, 1 hour reaction; read-out: c-Raf FL IC-50.
On to `Cn1c(N2CCOCC2)cc(-c2cc(NC(=O)c3ccnc(C(C)(F)F)c3)cnc2Cl)cc1=O` [Example 513, N-(2-chloro-1′-methyl-6′-morpholino-2′-oxo-1′,2′-dihydro-[3,4′-bipyridin]-5-yl)-2-(1,1-difluoroethyl)isonicotinamide], for which the pIC50 was 9.15. Turning to `Cc1ccc(NC(=O)c2cccc(C(F)(F)F)c2)cc1-c1cc(N2CCOCC2=O)c(=O)n(C)c1` [Example 451, N-(4-methyl-3-(1-methyl-6-oxo-5-(3-oxomorpholino)-1,6-dihydropyridin-3-yl)phenyl)-3-(trifluoromethyl)benzamide], the pIC50 is 7.85. As for `Cc1ccc(NC(=O)c2ccnc(C(C)(C)C#N)c2)cc1-c1cc(N2CCOC[C@H]2C)c(=O)n(C)n1` [Example 672, (R)-2-(2-cyanopropan-2-yl)-N-(4-methyl-3-(1-methyl-5-(3-methylmorpholino)-6-oxo-1,6-dihydropyridazin-3-yl)phenyl)isonicotinamide], the pIC50 is 8.46. With `CCNc1nc(-c2cc(NC(=O)c3ccnc(S(C)(=O)=O)c3)ccc2C)cc(N2CCOCC2)n1` [Example 702, N-(3-(2-(ethylamino)-6-morpholinopyrimidin-4-yl)-4-methylphenyl)-2-(methylsulfonyl)isonicotinamide], the pIC50 is 8.89. On to `CCn1c(N2CCOCC2)cc(-c2cc(NC(=O)c3ccnc(C(C)(F)F)c3)ccc2C)cc1=O` [Example 519, 2-(1,1-difluoroethyl)-N-(3-(1-ethyl-6-morpholino-2-oxo-1,2-dihydropyridin-4-yl)-4-methylphenyl)isonicotinamide], for which the pIC50 is 10.00. As to `Cc1ccc(C(=O)Nc2cccc(C(C)(C)O)c2)cc1-c1cc(N2CCOCC2)c(=O)n(C)c1` [Example 439, N-(3-(2-hydroxypropan-2-yl)phenyl)-4-methyl-3-(1-methyl-5-morpholino-6-oxo-1,6-dihydropyridin-3-yl)benzamide], the pIC50 is 8.57.

In the case of `Cc1ccc(NC(=O)c2cnnc(C3CC3)c2)cc1-c1cc(N2CCOCC2)n(C)c(=O)c1` [Example 496, 6-cyclopropyl-N-(4-methyl-3-(1-methyl-6-morpholino-2-oxo-1,2-dihydropyridin-4-yl)phenyl)pyridazine-4-carboxamide], the pIC50 was 9.70.

In the case of `COc1nnc(-c2cc(NC(=O)c3ccnc(C(F)(F)F)c3)cnc2C)cc1N1CCOCC1` [Example 605, N-(5-(6-methoxy-5-morpholinopyridazin-3-yl)-6-methylpyridin-3-yl)-2-(trifluoromethyl)isonicotinamide], the pIC50 is 9.00. `COc1nnc(-c2cc(NC(=O)c3ccnc(C(C)(F)F)c3)ccc2C)cc1N1CCOCC1` [Example 548, 2-(1,1-difluoroethyl)-N-(3-(6-methoxy-5-morpholinopyridazin-3-yl)-4-methylphenyl)isonicotinamide]: the pIC50 was 9.52.

Consider `CCOc1nnc(-c2cc(NC(=O)c3ccnc(C(F)(F)CC)c3)cnc2C)cc1N1CCOCC1` [Example 617, 2-(1,1-difluoropropyl)-N-(5-(6-ethoxy-5-morpholinopyridazin-3-yl)-6-methylpyridin-3-yl)isonicotinamide], for which the pIC50 is 9.00. With `Cc1ncc(NC(=O)c2ccnc(C(C)(C)C#N)c2)cc1-c1cc(N2CCOCC2)n2nccc2n1` [Example 791, 2-(2-cyanopropan-2-yl)-N-(6-methyl-5-(7-morpholinopyrazolo[1,5-a]pyrimidin-5-yl)pyridin-3-yl)isonicotinamide], the pIC50 was 8.59. Consider `Cc1ccc(NC(=O)c2cccc(C(F)(F)F)c2)cc1-c1cc(N2CCOCC2)nc(N2C(=O)OC[C@@H]2C)n1` [Example 783, (S)—N-(4-methyl-3-(2-(4-methyl-2-oxooxazolidin-3-yl)-6-morpholinopyrimidin-4-yl)phenyl)-3-(trifluoromethyl)benzamide], for which the pIC50 was 8.68.

Still in this assay, the particulars now being: AlphaScreen, 60 min pre-incubation, reaction 1 hour at room temperature; read-out: c-Raf FL IC-50.
For the compound `Cc1ncc(NC(=O)c2ccnc(C(C)(C)C)c2)cc1-c1cc(N2CCOCC2)nc(N2CC(O)C2)c1` [Example 1089, 2-(tert-butyl)-N-(2′-(3-hydroxyazetidin-1-yl)-2-methyl-6′-morpholino-[3,4′-bipyridin]-5-yl)isonicotinamide], the pIC50 is 7.69. Turning to `CCC(F)(F)c1cc(C(=O)Nc2cnc(C)c(-c3cc(N4CCOCC4)c(OCC(F)F)nn3)c2)ccn1` [Example 914, N-(5-(6-(2,2-difluoroethoxy)-5-morpholinopyridazin-3-yl)-6-methylpyridin-3-yl)-2-(1,1-difluoropropyl)isonicotinamide], the pIC50 is 9.15.

With `Cc1ccc(NC(=O)c2ccnc(C(C)(F)F)c2)cc1-c1cc(C2COCCO2)nc(N2CCOCC2)c1` (stereo not shown) [Example 1145], the pIC50 is 9.40. As to `Cc1ncc(NC(=O)c2cccc(C(F)(F)F)c2)cc1-c1cnc(N(C)CCO)c(N2CCOCC2)c1` [Example 986, N-(6′-((2-hydroxyethyl)(methyl)amino)-2-methyl-5′-morpholino-[3,3′-bipyridin]-5-yl)-3-(trifluoromethyl)benzamide], the pIC50 is 9.55. On to `Cc1ncc(NC(=O)c2ccnc(C(C)(F)F)c2)cc1-c1cc(N2CCOCC2)c(OC(C)C)nn1` [Example 912, 2-(1,1-difluoroethyl)-N-(5-(6-isopropoxy-5-morpholinopyridazin-3-yl)-6-methylpyridin-3-yl)isonicotinamide], for which the pIC50 is 9.19. On to `Cc1ncc(NC(=O)c2cc(C(C)(C)O)ccn2)cc1-c1cnc(OCCO)c(N2CCOCC2)c1` [Example 972, N-(6′-(2-hydroxyethoxy)-2-methyl-5-morpholino-[3,3′-bipyridin]-5-yl)-4-(2-hydroxypropan-2-yl)picolinamide], for which the pIC50 was 7.93. Consider `Cc1ccc(NC(=O)c2ccnc(C(F)(F)F)c2)cc1-c1cc(NCCO)nc(N2CCOCC2)c1F` [Example 1008, N-(3-(3-fluoro-6-((2-hydroxyethyl)amino)-2-morpholinopyridin-4-yl)-4-methylphenyl)-2-(trifluoromethyl)isonicotinamide], for which the pIC50 is 8.56.

Turning to `Cc1ncc(NC(=O)c2cc(C(C)(C)C#N)ccn2)cc1-c1cnc(OC2CCOCC2)c(N2CCOCC2)c1` [Example 943, 4-(2-cyanopropan-2-yl)-N-(2-methyl-5′-morpholino-6′-((tetrahydro-2H-pyran-4-yl)oxy)-[3,3′-bipyridin]-5-yl)picolinamide], the pIC50 was 8.57. On to `Cc1ccc(NC(=O)c2ccnc(C(C)(F)F)c2)cc1-c1cnc(OCCO)c(N2CCOCC2)c1` [Example 1000, 2-(1,1-difluoroethyl)-N-(3-(6-(2-hydroxyethoxy)-5-morpholinopyridin-3-yl)-4-methylphenyl)isonicotinamide], for which the pIC50 is 9.29. Turning to `Cc1ccc(NC(=O)c2ccnc(C(C)(C)F)c2)cc1-c1cnc(OCCO)c(N2CCOCC2)c1` [Example 997, 2-(2-fluoropropan-2-yl)-N-(3-(6-(2-hydroxyethoxy)-5-morpholinopyridin-3-yl)-4-methylphenyl)isonicotinamide], the pIC50 is 9.36. With `Cc1ccc(NC(=O)c2cnnc(C(F)(F)F)c2)cc1-c1c(F)c(NCCO)nc(N2CCOCC2)c1F` [Example 1015, N-(3-(3,5-difluoro-2-((2-hydroxyethyl)amino)-6-morpholinopyridin-4-yl)-4-methylphenyl)-6-(trifluoromethyl)pyridazine-4-carboxamide], the pIC50 is 8.30.

Staying with this assay, now noted: Table 2; AlphaScreen, 1 hour reaction; read-out: c-Raf FL IC-50.
Turning to `CCOc1ncc(-c2cc(NC(=O)c3ccnc(C(C)(C)F)c3)cnc2C)cc1N1CCOCC1` [Example 253, N-(6′-ethoxy-2-methyl-5′-morpholino-[3,3′-bipyridin]-5-yl)-2-(2-fluoropropan-2-yl)isonicotinamide], the pIC50 is 9.15.

For the compound `CC(C)c1cc(C(=O)Nc2ccc(Cl)c(-c3cc(N4CCOCC4)c(=O)n(C)c3)c2)ccn1` [Example 421, N-(4-chloro-3-(1-methyl-5-morpholino-6-oxo-1,6-dihydropyridin-3-yl)phenyl)-2-isopropylisonicotinamide], the pIC50 was 9.70. Consider `CCc1cc(C(=O)Nc2ccc(C)c(-c3cc(N4CCOCC4)c(=O)n(C)c3)c2)ccn1` [Example 353, 2-ethyl-N-(4-methyl-3-(1-methyl-5-morpholino-6-oxo-1,6-dihydropyridin-3-yl)phenyl)isonicotinamide], for which the pIC50 is 9.70. For the compound `Cc1ccc(NC(=O)c2cnnc(C(C)(C)C#N)c2)cc1-c1cc(N2CCOCC2)c(=O)n(C)c1` [Example 360, 6-(2-cyanopropan-2-yl)-N-(4-methyl-3-(1-methyl-5-morpholino-6-oxo-1,6-dihydropyridin-3-yl)phenyl)pyridazine-4-carboxamide], the pIC50 was 8.89. On the same count and under the same terms, the result for `CCOc1ncc(-c2cc(NC(=O)c3cccc(-c4nnco4)c3)ccc2C)cc1N1CCOCC1` [Example 230, N-(3-(6-ethoxy-5-morpholinopyridin-3-yl)-4-methylphenyl)-3-(1,3,4-oxadiazol-2-yl)benzamide] reads 9.40; that for `Cc1ccc(NC(=O)c2cnnc(C3(C#N)CC3)c2)cc1-c1cnc(OC2CCOCC2)c(N2CCOCC2)c1` [Example 302, 6-(1-cyanocyclopropyl)-N-(4-methyl-3-(5-morpholino-6-((tetrahydro-2H-pyran-4-yl)oxy)pyridin-3-yl)phenyl)pyridazine-4-carboxamide], 9.70. `Cc1ccc(NC(=O)c2cc(C3CC3)nn2C)cc1-c1cc(N2CCOCC2)c(=O)n(C)c1` [Example 368, 3-cyclopropyl-1-methyl-N-(4-methyl-3-(1-methyl-5-morpholino-6-oxo-1,6-dihydropyridin-3-yl)phenyl)-1H-pyrazole-5-carboxamide]: the pIC50 is 8.60. Regarding `CCOc1ncc(-c2cc(NC(=O)c3cc(CN(C)C)cc(C(F)(F)F)c3)cnc2C)cc1N1CCOCC1` [Example 258, 3-((dimethylamino)methyl)-N-(6′-ethoxy-2-methyl-5′-morpholino-[3,3′-bipyridin]-5-yl)-5-(trifluoromethyl)benzamide], the pIC50 was 8.66.
